Drawing on US10590158B2 (priority 2015, dated 2020), this text covers IC50 for one substance.

In experiment [1] the test system is 293T cells. Nature of the experiment: Cytotoxic assay (CellTiter-Glo, 72 h) on 293T cells. The experiment is classed as cell-based. Particulars: read-out: IC50 293T, 293T human embryonic kidney cell line. (ATP-based viability assays read luminescence as a measure of living cells.)
The subject of experiment [2] is MES SA cells. Nature of the experiment: Cytotoxic assay (CellTiter-Glo, 72 h) on MES SA cells. The experiment is classed as cell-based. Particulars: read-out: IC50 MES SA, MES SA uterine sarcoma cells.

As usually defined, the IC50 is the concentration needed to halve the response being measured.

Regarding N-Ac Calicheamicin γ, the IC50 was found to be 0.151 nM in experiment [1] and 0.0297 nM in experiment [2].
